The source of these data is ChEMBL document CHEMBL4304744, “Anti-metastatic Inhibitors of Lysyl Oxidase (LOX): Design and Structure-Activity Relationships” (J Med Chem, 2019).

Structures are written as SMILES.

The assay can be described thus: Inhibition of pig skin LOX using cadaverine hydrochloride as substrate preincubated for 20 mins followed by substrate addition and measured after 45 mins by horseradish peroxidase-coupled amplex red reagent-based fluorescence assay. Set-up: species or system Sus scrofa.

Turning to `NCc1ncc(S(=O)(=O)c2ccc3ccccc3c2)s1`, the IC50 (as a rule, the concentration that gives 50% inhibition) lay in the range of 1000 to 1200 nM.
